Results reported in PubChem BioAssay (EPA / NIEHS).
For part of these data: Most of the hits are listed elsewhere, so they are rarer here than in the full data. Inconclusive results are not listed. The list shows a part of the results, in another mix than the full data. Activity calls are given as the source filed them. The calls were made as follows, unless noted: active = hit-call score of the fitted dose curve at least 0.9, where 1 is the maximum; inactive = score below 0.9.

experiment: ATG_RORE_CIS: Attagene CIS-FACTORIAL HepG2 Assay for human RAR-related Orphan Receptor Element (RORE) (AID 2282959); conditions: HepG2 Attagene cis-factorial RORE reporter, mRNA; actives raise or lower the signal

Compound | outcome | AC50
COc1ccc(O)cc1 | inactive | –
CN(C)C(=O)NC1(c2ccccc2)CCN(CC[C@@]2(c3ccc(F)c(F)c3)CN(C(=O)c3ccccc3)CCO2)CC1 | inactive | –
Cn1c(=O)[nH]c2ncn(C)c2c1=O | inactive | –
Cc1ccc(S(N)(=O)=O)cc1 | inactive | –
CCC(C)(O)CCCC(C)C (stereo not given) | inactive | –
CC(C)C(=O)C(C)C | inactive | –
Cc1ccc2oc(=O)ccc2c1 | inactive | –
CCOC(=O)c1ccc(C2CCC(NC[C@H](O)COc3ccc(O)c(NS(C)(=O)=O)c3)CC2)cc1 (stereo not given in full) | – | active: 57.9 µM
CCCCCC1C(=O)CCC1CC(=O)OC (stereo not given) | inactive | –
COCc1c(C(C)C)nc(C(C)C)c(/C=C/[C@@H](O)C[C@@H](O)CC(=O)O)c1-c1ccc(F)cc1 | inactive | –
CC(C)(c1cc(Br)c(OCCO)c(Br)c1)c1cc(Br)c(OCCO)c(Br)c1 | inactive | –
Cc1ccc(S(=O)(=O)Oc2ccc(N=Nc3ccc(-c4ccc(N=Nc5c(O)ccc6cc(S(=O)(=O)O)cc(S(=O)(=O)O)c56)c(C)c4)cc3C)cc2)cc1 | – | active: 5.37 µM
CCC(O)CO (stereo not given) | inactive | –
C=C[Si](OCCOC)(OCCOC)OCCOC | inactive | –
CCCCC(CC)COC(=O)CS (stereo not given) | inactive | –
NCCCN1CCOCC1 | inactive | –
c1cc(C(c2ccc(OCC3CO3)cc2)C(c2ccc(OCC3CO3)cc2)c2ccc(OCC3CO3)cc2)ccc1OCC1CO1 (stereo not given) | – | active: 49.1 µM
C/C=C/C=C/CCCCCCCO | – | active: 31.5 µM
COCCOc1cc2cc(C(=O)NC3CCN(C(C)C)CC3)n(CC(=O)Nc3ccc(Cl)cn3)c2cn1 | – | active: 100 µM
CC(C)(C)c1csc(-c2cc3cc(OCc4ccccc4CC(=O)O)ccc3o2)n1 | – | active: 16.3 µM
CC(C)CCCCCCOC(=O)CCCCC(=O)OCCCCCCC(C)C | inactive | –
CCCCCCCCCOC(C)=O | inactive | –
O=C1CCC(N2C(=O)c3ccccc3C2=O)C(=O)N1 (stereo not given) | inactive | –
CC/C=C\CCOC(=O)CCCCC | inactive | –
CCCCCCCCCCCCCCCC | inactive | –
[O-]/[N+](=N\O)c1ccccc1 | inactive | –
Nc1ccc(N)c(Cl)c1 | inactive | –

experiment: TOX21_p53_BLA_p4_viability: Viability Assessment in the Tox21 HCT-116 p53 Agonism Beta-lactamase Assay, Phase 4 (AID 2283597; active = hit-call score of the fitted dose curve at least 0.9, where 1 is the maximum;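 also: hits lower the luminescence signal meaning cytotoxicity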); conditions: not given
Summary of the method: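 HCT116 p53-bla cells (4000/well) rested 5 h at 37C, then received compounds in DMSO (217-fold dilution) for 16 h at 37C, 5% CO2. CellTiter-Glo was added after the CCF4-AM read, and luminescence was read after 30 min at room temperature.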

Compound | outcome
CCOC(=O)C1=C[C@@H](OC(CC)CC)[C@H](NC(C)=O)[C@@H](N)C1 | inactive
CCN(CCO)CCCC(C)Nc1ccnc2cc(Cl)ccc12 (stereo not given) | inactive
CCN[C@@H]1C[C@H](N)[C@@H](OC2OC(CN)=CCC2N)[C@H](O)[C@H]1O[C@H]1OC[C@](C)(O)[C@H](NC)[C@H]1O (stereo not given in full) | inactive
